This is a selection; strong and weak results do not stand in their true shares. Activity calls are given as the source filed them.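 The calls were made as follows: active = inhibition above about 30% (limit read from the data); inactive = the rest.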

Sequences of proteins named here, by UniProt entry; tags and fusion partners are left off.
UniProt P63073, whole entry, looked up: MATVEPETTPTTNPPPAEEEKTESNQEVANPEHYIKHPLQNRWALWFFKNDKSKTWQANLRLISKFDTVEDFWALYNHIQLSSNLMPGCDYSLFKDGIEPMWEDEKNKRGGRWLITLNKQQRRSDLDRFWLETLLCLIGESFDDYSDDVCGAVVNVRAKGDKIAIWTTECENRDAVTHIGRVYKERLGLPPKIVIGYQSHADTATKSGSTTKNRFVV
UniProt Q04637, whole entry, looked up: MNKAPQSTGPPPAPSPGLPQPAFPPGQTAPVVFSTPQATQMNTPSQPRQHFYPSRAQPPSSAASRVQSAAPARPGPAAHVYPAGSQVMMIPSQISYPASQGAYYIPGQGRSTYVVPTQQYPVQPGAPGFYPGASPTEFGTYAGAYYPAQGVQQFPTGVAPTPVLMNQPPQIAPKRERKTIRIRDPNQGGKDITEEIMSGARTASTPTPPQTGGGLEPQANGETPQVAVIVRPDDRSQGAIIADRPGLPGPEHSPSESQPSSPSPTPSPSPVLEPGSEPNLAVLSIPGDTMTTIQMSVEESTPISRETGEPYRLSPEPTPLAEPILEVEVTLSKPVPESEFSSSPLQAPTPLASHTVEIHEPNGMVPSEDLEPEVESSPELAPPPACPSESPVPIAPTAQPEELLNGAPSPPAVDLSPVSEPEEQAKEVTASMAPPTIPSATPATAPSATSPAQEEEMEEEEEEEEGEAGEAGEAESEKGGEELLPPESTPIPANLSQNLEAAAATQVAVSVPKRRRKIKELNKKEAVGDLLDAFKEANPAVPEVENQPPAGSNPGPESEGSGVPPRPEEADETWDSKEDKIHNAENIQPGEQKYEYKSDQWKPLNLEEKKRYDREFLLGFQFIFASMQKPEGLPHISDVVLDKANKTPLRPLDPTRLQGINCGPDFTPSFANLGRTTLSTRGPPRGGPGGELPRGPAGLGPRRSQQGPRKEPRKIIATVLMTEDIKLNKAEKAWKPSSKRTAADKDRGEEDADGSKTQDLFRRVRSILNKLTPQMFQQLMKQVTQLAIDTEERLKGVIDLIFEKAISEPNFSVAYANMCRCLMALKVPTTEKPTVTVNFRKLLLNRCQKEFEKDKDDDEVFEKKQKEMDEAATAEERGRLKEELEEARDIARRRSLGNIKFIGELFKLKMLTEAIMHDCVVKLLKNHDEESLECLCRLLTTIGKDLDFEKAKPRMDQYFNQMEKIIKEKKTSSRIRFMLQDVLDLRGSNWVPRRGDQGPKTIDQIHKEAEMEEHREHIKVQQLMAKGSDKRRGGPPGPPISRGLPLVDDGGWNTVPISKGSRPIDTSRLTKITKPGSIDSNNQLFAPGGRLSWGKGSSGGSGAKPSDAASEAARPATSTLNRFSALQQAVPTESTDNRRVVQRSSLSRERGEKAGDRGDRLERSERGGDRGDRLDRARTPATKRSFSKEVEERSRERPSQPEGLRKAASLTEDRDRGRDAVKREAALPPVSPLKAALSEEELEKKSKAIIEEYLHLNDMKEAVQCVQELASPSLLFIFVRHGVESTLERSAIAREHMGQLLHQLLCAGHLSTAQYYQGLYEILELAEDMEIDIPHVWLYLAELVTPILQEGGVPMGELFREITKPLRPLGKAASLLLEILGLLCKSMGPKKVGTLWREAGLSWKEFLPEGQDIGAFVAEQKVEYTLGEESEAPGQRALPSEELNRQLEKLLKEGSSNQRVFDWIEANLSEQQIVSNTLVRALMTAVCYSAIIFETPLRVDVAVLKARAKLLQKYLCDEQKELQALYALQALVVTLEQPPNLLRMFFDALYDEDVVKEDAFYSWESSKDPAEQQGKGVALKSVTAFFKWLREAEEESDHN

The target in the experiment is Eukaryotic translation initiation factor 4E (Mus musculus) + Eukaryotic translation initiation factor 4 gamma 1 (Homo sapiens) (UniProt P63073+Q04637). As to the kind of experiment: eIF4E–eIF4G protein interaction inhibitors, primary screen, biochemical, uHTS, TR-FRET, eIF4GI fragment (AID 782).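 Also: 0% = full FRET control wells and 100% = background wells lacking eIF4GI fragment.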 The settings on record: TR-FRET eIF4E-eIF4GI(517-606) binding, 2 h; at 21.7 µM; stronger effect = higher value. A general note: In TR-FRET formats the signal depends on donor and acceptor labels being close together.
As to `CC1CCC(C(C)C)C(OP(=O)(Nc2ccccn2)c2ccccc2)C1` (configuration not stated), the inhibition is inactive: 0%. For `Cc1nn(-c2ccccc2)c2c1P(=O)(N1CCOCC1)N(C)C(c1ccccc1)=N2` (configuration not stated) the value was inactive: -1.86%.

Regarding `CN(C)C1(CNC(=O)c2ccc(S(C)(=O)=O)cc2)CCCCC1`, the inhibition was inactive: 3.73%. Regarding `O=C(/C=C/c1ccccc1)OC1CN2CCC1CC2` (configuration not stated), the inhibition is inactive: 2.14%. Take `O=P1(Nc2ncccn2)COc2ccccc2OC1`: the inhibition was inactive: -7.4%. On to `Nc1cccc([As](=O)(O)c2ccccc2)c1`, for which the inhibition is inactive: -5.19%. `O=[As](O)(c1cccs1)c1cccs1`: the inhibition was inactive: -2.55%. For the compound `Cc1ccc(OCC(=O)OC2CN3CCC2CC3)cc1` (configuration not stated), the inhibition is inactive: -1.01%. Turning to `O=P1(Nc2ccc(Br)cn2)COc2ccccc2OC1`, the inhibition is inactive: 2.67%.

Consider `O=P1(Nc2ccccn2)COc2ccccc2OC1`, for which the inhibition is inactive: 1.17%. On to `CCOP(=O)(Nc1ccc(C)cn1)OCC`, for which the inhibition was inactive: 0.43%. With `CC(C)(C)C(=O)NC(Sc1ncccn1)C(Cl)(Cl)Cl` (configuration not stated), the inhibition is inactive: -5.07%. As to `Clc1n[nH]nc1-c1nn[nH][15n]1`, the inhibition was inactive: -0.61%. For `CC(C)/C=N\N=C(\N)N[N+](=O)[O-]`, the inhibition is inactive: -2.31%.

Consider `CN(C(=O)Cc1ccc(Cl)c(Cl)c1)[C@@H]1CCCC[C@H]1N1CCCC1`, for which the inhibition is inactive: 7.12%. In the case of `O=[As](O)(c1ccccc1Br)c1ccccc1Br`, the inhibition is inactive: -1.07%.

`O=C(OC1CN2CCC1CC2)c1ccc(Cl)cc1` (configuration not stated): the inhibition is inactive: -1.38%.

As to `O=[As](O)(O)c1cccnc1`, the inhibition is inactive: -3.1%. In the case of `COc1cc(C(=O)NCC2(N3CCOCC3)CCCCC2)cc(Cl)c1OC(C)C` it was inactive: -2.16%. In the case of `Cc1cccc(OCC(=O)OC2CN3CCC2CC3)c1` (configuration not stated) it was inactive: 0.89%; in that of `O=[As](O)(c1cccc(O)c1)c1cccc(O)c1`, inactive: 6.7%. In the case of `Nc1cccc2c([As](=O)(O)O)cccc12` it was inactive: 1.69%. `Cc1ccc(NCCc2c([N+](=O)[O-])cc([N+](=O)[O-])cc2[N+](=O)[O-])cc1`: the inhibition was inactive: 19.6%. Take `CCCOP(=S)(Nc1nc(N)cc(=O)[nH]1)OCCC`: the inhibition is inactive: 0.48%.

With `CCOP(=O)(Nc1cccc2ccccc12)OCC`, the inhibition is inactive: 1.44%. For the compound `COc1cc(C2NCCC3(OCCO3)C2(C)C)cc(OC)c1OC` (configuration not stated), the inhibition is inactive: -2.06%. In the case of `O=P(Nc1nccs1)(Oc1ccccc1)Oc1ccccc1` it was inactive: -2.37%. In the case of `O=P(Nc1nccs1)(c1ccccc1)c1nc2ccccc2s1` (configuration not stated), the inhibition was inactive: -0.01%. As to `CCOP1(=S)c2c(C)nn(CCC#N)c2N=C(c2ccccc2F)N1C` (configuration not stated), the inhibition is inactive: -1.7%. Turning to `CS(=O)(=O)c1cc([N+](=O)[O-])c2no[n+]([O-])c2c1`, the inhibition was inactive: 27%.

As for `Nc1ccccc1[As](=O)(O)c1ccccc1`, the inhibition is inactive: -3.8%. `O=C(O)COc1ccc([As](=O)(O)O)cc1[N+](=O)[O-]`: the inhibition is inactive: 4.21%. Take `NC(=O)Nc1ccc([As](=O)(O)O)cc1`: the inhibition was inactive: -2.43%. For the compound `CN(C(=O)Cc1ccccc1)[C@@H]1CC[C@]2(CCCO2)C[C@H]1N1CCCC1`, the inhibition is inactive: -19.3%. For `CCOP1(=S)c2c(C)nn(CCC#N)c2N=C(c2ccc(F)cc2)N1C` (configuration not stated) the value was inactive: 0.48%; for `O=[N+]([O-])c1ccc2c(c1)nnn2O`, inactive: -5.12%; for `O=[As](O)(c1ccc(O)cc1)c1ccccc1O`, inactive: -6.93%.

As to `C[As](=O)(O)c1cccc(C(=O)O)c1`, the inhibition is inactive: 5.53%. `Cc1ccc(OP(=O)(Nc2ccc([N+](=O)[O-])cn2)Oc2ccc(C)cc2)cc1`: the inhibition is inactive: 0.83%. For `Cc1ccc2nc3c(c(C)c2c1)CC(C(Cl)Cl)S3` (configuration not stated) the value was inactive: 1.03%; for `ClCCSc1nnc(-c2cccnc2)o1`, inactive: 2.83%; for `CC(C)c1ccc(OP(=O)(Nc2ccccn2)Oc2ccccc2F)cc1` (configuration not stated), inactive: 0.1%. As to `O=[N+]([O-])c1cc([N+](=O)[O-])c(-c2ccn[nH]2)s1`, the inhibition is inactive: 25.1%. With `CC(C)NC(=O)NP(=O)(Oc1ccccc1)Oc1ccccc1`, the inhibition was inactive: 3.79%. Regarding `CCN(CC)C(=S)SC(NC=O)C(Cl)(Cl)Cl` (configuration not stated), the inhibition is inactive: -2.28%. For `Cc1c2c(nc3ccccc13)SC(C(Cl)Cl)C2` (configuration not stated), the inhibition was inactive: 7.8%.

Consider `Cc1cc(=O)[nH]c(N[N+](=O)[O-])n1`, for which the inhibition is inactive: 2.53%.

Take `O=C(OC1CN2CCC1CC2)C12CC3CC(CC(C3)C1)C2` (configuration not stated): the inhibition is inactive: -1.67%.

With `COc1cc(I)ccc1[As](=O)(O)O`, the inhibition is inactive: 2.7%. Regarding `COc1ccc2nc(NP(=O)(c3ccccc3)c3ccccc3)sc2c1`, the inhibition is inactive: -0.81%. Turning to `COc1ccc(N/C(=N/P(=O)(N2CCOCC2)N2CCOCC2)N2CCOCC2)cc1`, the inhibition was inactive: -1.75%. For `COP1(=S)c2c(C)nn(CCC#N)c2N=C(c2ccc(F)cc2)N1C` (configuration not stated) the value was inactive: 3.77%; for `O=C(COc1ccccc1)OC1CN2CCC1CC2` (configuration not stated), inactive: -8.03%. Consider `CCOC(=O)c1ccc(NC(=O)C(C)(CCl)SC)cc1` (configuration not stated), for which the inhibition was inactive: -2.94%. As for `CCC(C)N(CC(C)C)C(=S)SC(NC(C)=O)C(Cl)(Cl)Cl` (configuration not stated), the inhibition was inactive: -5.94%. As for `CCOC(=O)Nc1ccc([As](=O)(O)O)c(O)c1`, the inhibition was inactive: -3.53%. Consider `Cc1cc(SC(NC(=O)c2ccccc2)C(Cl)(Cl)Cl)nc(C(C)C)n1` (configuration not stated), for which the inhibition was inactive: -1%.

Take `CCOC(=O)Nc1cccc([As](=O)(O)O)c1`: the inhibition was inactive: 0.87%. In the case of `O=P(Nc1ccccn1)(c1cccc2ccccc12)c1cccc2ccccc12` it was inactive: -5.53%; in that of `Cc1cc(SC(NC=O)C(Cl)(Cl)Cl)ncn1` (configuration not stated), inactive: -0.87%.

Turning to `O=[N+]([O-])c1ccc(Nc2ccc(Oc3ccc([N+](=O)[O-])cc3[N+](=O)[O-])cc2)c([N+](=O)[O-])c1`, the inhibition is inactive: 4.23%. On to `O=C(Nc1cc([As](=O)(O)O)ccc1O)c1ccccc1`, for which the inhibition was inactive: -2.41%.

In the case of `O=[N+]([O-])c1ncn(CCn2ncnc2[N+](=O)[O-])n1`, the inhibition was inactive: -3.31%. With `CC(C)(C)C(=O)NC(Sc1ccncn1)C(Cl)(Cl)Cl` (configuration not stated), the inhibition is inactive: 7.23%. As to `O=C(O)CNc1ccc([As](=O)(O)O)cc1`, the inhibition is inactive: -5.8%.

Consider `O=[N+]([O-])c1cccc(NC2=NCC(CBr)S2)c1` (configuration not stated), for which the inhibition is inactive: 1.67%. Turning to `COc1ccc(C2=NCC(CBr)S2)cc1` (configuration not stated), the inhibition was inactive: 0.3%.

In general, inhibition refers to the relative decrease from the control value, in per cent.

These data come from PubChem BioAssay AID782 (Emory University Molecular Libraries Screening Center, 2007).
